In general, pIC50 refers to the negative decadic logarithm of the IC50, by convention in mol/L. Low readings indicate a large IC50, high ones a small IC50.

This note sets out measurements from ChEMBL document CHEMBL2074233, “Expression and pharmacological profile of the human organic cation transporters hOCT1, hOCT2 and hOCT3” (Br J Pharmacol, 2002).

pIC50: −log10 of the molar value.

The target in the test is T1, Solute carrier family 22 member 2 (Homo sapiens, UniProt O15244).
T1 sequence (O15244 whole entry): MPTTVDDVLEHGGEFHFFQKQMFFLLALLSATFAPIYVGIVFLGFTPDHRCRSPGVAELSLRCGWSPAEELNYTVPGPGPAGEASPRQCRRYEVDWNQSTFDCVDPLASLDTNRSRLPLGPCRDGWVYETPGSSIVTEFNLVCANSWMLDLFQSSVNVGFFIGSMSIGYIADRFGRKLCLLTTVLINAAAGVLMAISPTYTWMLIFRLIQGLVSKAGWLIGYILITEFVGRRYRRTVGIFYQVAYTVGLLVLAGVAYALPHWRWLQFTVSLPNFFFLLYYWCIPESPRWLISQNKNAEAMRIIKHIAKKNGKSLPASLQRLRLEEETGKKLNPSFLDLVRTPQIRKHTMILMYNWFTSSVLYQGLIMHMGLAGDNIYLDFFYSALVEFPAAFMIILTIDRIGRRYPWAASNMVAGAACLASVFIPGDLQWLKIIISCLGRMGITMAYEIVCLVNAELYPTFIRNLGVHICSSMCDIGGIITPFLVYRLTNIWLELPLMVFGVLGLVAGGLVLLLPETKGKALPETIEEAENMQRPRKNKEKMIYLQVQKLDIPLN
In words: TP_TRANSPORTER: inhibition of MPP+ uptake (MPP+: 0.025 uM) in OCT2-expressing HEK293 cells.

`CC(COc1ccccc1)N(CCCl)Cc1ccccc1` (configuration not stated) [PHENOXYBENZAMINE] had a pIC50 of 5.31.
In the case of `COc1cc2nc(N3CCN(C(=O)c4ccco4)CC3)nc(N)c2cc1OC` [PRAZOSIN], the pIC50 was less than 4.00.
